The text below walks through data of patent publication US20090004101A1, “Method and Means for Enhanced Pulmonary Drug Delivery” (UNIVERSITY COLLEGE CARDIFF CONSULTANTS LIMITED, priority 2004, published 2009).

The nature of data set [1]: Pulmonary absorption of human insulin co-administered intratracheally with P2Y receptor agonists to anesthetized rabbits (plasma insulin by radioimmunoassay). The following applies: insulin 10 U/kg intratracheal alone, rabbit, mean±SD. As for the experimental part: Briefly, New Zealand white rabbits were anesthetized with Hypnovel (Roche, Welwyn Garden City, UK), 0.3 mg/kg i.v. via cannula in the ear, and Hypnorrn (Janssen Animal Health, Grove, Oxford, UK), 0.1 mg/kg via intramuscular injection. Once intubated with a polyethylene endotracheal tube (i.d. 4 mm, o.d. 5 mm; Portex, UK) coated with a layer of xylocalne gel (Astra Pharmaceuticals, Kings Langley, UK), a second, smaller polyethylene dosing tube was inserted inside the endotracheal tube to the point of the bifurcation of the trachea.

The conditions of data set [2]: man, pulmonary delivery; cited from earlier work.

With Insulin, in data set [1] (n=4 (UTP study)), the Cmax of insulin amounted to 440 ± 44.6 μU/mL, the “F (bioavailable fraction) of insulin” value is on record as 4.48 ± 0.13% and the t1/2 of insulin is recorded as 44.9 ± 11.51 min. For the same substance, in data set [1] (n=4 (Up4U study)), the Cmax of insulin stood at 527 ± 42.2 μU/mL, the “F (bioavailable fraction) of insulin” value is given as 3.75 ± 0.84% and the t1/2 of insulin was found to be 35.4 ± 3.41 min. For the same substance, the “Insulin deposited in the lungs that reaches the systemic circulation” value in data set [2] is given as 20-46%.
